{"sequences": {"note": "The chains behind the UniProt entries cited, without tags or fusion partners. Where a name states a change or a piece, a line headed by the entry shows the natural chain unless it says otherwise.", "UniProt P9WGK3": "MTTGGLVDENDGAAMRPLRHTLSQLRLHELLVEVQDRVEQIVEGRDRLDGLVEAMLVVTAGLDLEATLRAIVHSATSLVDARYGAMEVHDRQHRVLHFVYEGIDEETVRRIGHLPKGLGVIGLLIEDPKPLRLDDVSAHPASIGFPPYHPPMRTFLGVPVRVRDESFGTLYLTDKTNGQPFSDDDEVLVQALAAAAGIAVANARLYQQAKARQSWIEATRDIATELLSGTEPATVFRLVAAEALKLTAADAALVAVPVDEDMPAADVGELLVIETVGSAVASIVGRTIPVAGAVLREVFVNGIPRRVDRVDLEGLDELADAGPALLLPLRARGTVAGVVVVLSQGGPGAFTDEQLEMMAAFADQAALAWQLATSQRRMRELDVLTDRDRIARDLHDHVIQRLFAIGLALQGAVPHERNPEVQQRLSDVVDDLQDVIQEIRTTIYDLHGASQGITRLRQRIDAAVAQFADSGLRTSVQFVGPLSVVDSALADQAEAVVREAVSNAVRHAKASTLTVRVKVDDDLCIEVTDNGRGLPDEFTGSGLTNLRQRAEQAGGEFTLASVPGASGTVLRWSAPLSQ"}, "source": "patent US11717508B2", "about": "“Compounds, compositions, and methods for inhibiting bacterial growth” (priority 2016, dated 2023)", "key": {"DosRST regulon": {"system": "DosRST regulon", "format": "cell-based"}, "DosS": {"molecular_target": "DosS (Mycobacterium tuberculosis, UniProt P9WGK3)", "format": "biochemical", "conditions": "DTN-reduced DosS"}}, "note": "Where two headings read alike, the source gives them in different places.", "data": [{"smiles": "C[C@@H]1CC[C@H]2[C@@H](C)C(=O)O[C@@H]3O[C@]4(C)CC[C@@H]1[C@]32OO4", "note": "[HC101A, artemisinin, reference compound]", "values": [{"measurement": "WT DMSO/WT HC101A Fold change", "setting": "DosRST regulon; gene MT1454 (Rv1439c)", "value": 0.4582}, {"measurement": "WT DMSO/WT HC101A Fold change", "setting": "DosRST regulon; gene MT1585.1", "value": 0.1658}, {"measurement": "WT DMSO/WT HC101A Fold change", "setting": "DosRST regulon; gene MT1586 (Rv1535)", "value": 0.3298}, {"measurement": "WT DMSO/WT HC101A Fold change", "setting": "DosRST regulon; gene MT1600 (Rv1550 fadD11)", "value": 0.42}, {"measurement": "WT DMSO/WT HC101A Fold change", "setting": "DosRST regulon; gene MT1627", "value": 0.4181}, {"measurement": "WT DMSO/WT HC101A Fold change", "setting": "DosRST regulon; gene MT1638 (Rv1602 hisH)", "value": 0.4546}, {"measurement": "WT DMSO/WT HC101A Fold change", "setting": "DosRST regulon; gene MT1692 (Rv1654 argB)", "value": 0.4031}, {"measurement": "WT DMSO/WT HC101A Fold change", "setting": "DosRST regulon; gene MT1693 (Rv1655 argD)", "value": 0.4373}, {"measurement": "WT DMSO/WT HC101A Fold change", "setting": "DosRST regulon; gene MT1694 (Rv1656 argF)", "value": 0.2782}, {"measurement": "WT DMSO/WT HC101A Fold change", "setting": "DosRST regulon; gene MT1725 (Rv1685c)", "value": 0.3787}, {"measurement": "WT DMSO/WT HC101A Fold change", "setting": "DosRST regulon; gene MT1726 (Rv1686c)", "value": 0.3243}, {"measurement": "WT DMSO/WT HC101A Fold change", "setting": "DosRST regulon; gene MT1727 (Rv1687c)", "value": 0.3344}, {"measurement": "WT DMSO/WT HC101A Fold change", "setting": "DosRST regulon; gene MT1736", "value": 0.4999}, {"measurement": "WT DMSO/WT HC101A Fold change", "setting": "DosRST regulon; gene MT1774 (Rv1733c)", "value": 0.04455}, {"measurement": "WT DMSO/WT HC101A Fold change", "setting": "DosRST regulon; gene MT1775", "value": 0.07083}, {"measurement": "WT DMSO/WT HC101A Fold change", "setting": "DosRST regulon; gene MT1776 (Rv1735c)", "value": 0.1794}, {"measurement": "WT DMSO/WT HC101A Fold change", "setting": "DosRST regulon; gene MT1777", "value": 0.0375}, {"measurement": "WT DMSO/WT HC101A Fold change", "setting": "DosRST regulon; gene MT1778 (Rv1736c narX)", "value": 0.02944}, {"measurement": "WT DMSO/WT HC101A Fold change", "setting": "DosRST regulon; gene MT1779 (Rv1737c narK2)", "value": 0.04042}, {"measurement": "WT DMSO/WT HC101A Fold change", "setting": "DosRST regulon; gene MT1780 (Rv1738)", "value": 0.04375}, {"measurement": "WT DMSO/WT HC101A Fold change", "setting": "DosRST regulon; gene MT1797", "value": 0.2522}, {"measurement": "WT DMSO/WT HC101A Fold change", "setting": "DosRST regulon; gene MT1809 (Rv1760)", "value": 0.466}, {"measurement": "WT DMSO/WT HC101A Fold change", "setting": "DosRST regulon; gene MT1822", "value": 0.4638}, {"measurement": "WT DMSO/WT HC101A Fold change", "setting": "DosRST regulon; gene MT1823 (Rv1773c)", "value": 0.2892}, {"measurement": "WT DMSO/WT HC101A Fold change", "setting": "DosRST regulon; gene MT1840 (Rv1791 PE)", "value": 0.4607}, {"measurement": "WT DMSO/WT HC101A Fold change", "setting": "DosRST regulon; gene MT1850 (Rv1812c)", "value": 0.4435}, {"measurement": "WT DMSO/WT HC101A Fold change", "setting": "DosRST regulon; gene MT1851 (Rv1813c)", "value": 0.05112}, {"measurement": "WT DMSO/WT HC101A Fold change", "setting": "DosRST regulon; gene MT1882 (Rv1834)", "value": 0.3391}, {"measurement": "WT DMSO/WT HC101A Fold change", "setting": "DosRST regulon; gene MT1932", "value": 0.4407}, {"measurement": "WT DMSO/WT HC101A Fold change", "setting": "DosRST regulon; gene MT1942", "value": 0.4836}, {"measurement": "WT DMSO/WT HC101A Fold change", "setting": "DosRST regulon; gene MT1943", "value": 0.4838}, {"measurement": "WT DMSO/WT HC101A Fold change", "setting": "DosRST regulon; gene MT1955 (Rv1904)", "value": 0.4978}, {"measurement": "WT DMSO/WT HC101A Fold change", "setting": "DosRST regulon; gene MT1959 (Rv1918c PPE)", "value": 0.4596}, {"measurement": "WT DMSO/WT HC101A Fold change", "setting": "DosRST regulon; gene MT1986 (Rv1936)", "value": 0.193}, {"measurement": "WT DMSO/WT HC101A Fold change", "setting": "DosRST regulon; gene MT1987 (Rv1937)", "value": 0.2038}, {"measurement": "WT DMSO/WT HC101A Fold change", "setting": "DosRST regulon; gene MT1988 (Rv1938 cphB)", "value": 0.197}, {"measurement": "WT DMSO/WT HC101A Fold change", "setting": "DosRST regulon; gene MT1989 (Rv1939)", "value": 0.2423}, {"measurement": "WT DMSO/WT HC101A Fold change", "setting": "DosRST regulon; gene MT2007", "value": 0.4225}, {"measurement": "WT DMSO/WT HC101A Fold change", "setting": "DosRST regulon; gene MT2016 (Rv1964)", "value": 0.2966}, {"measurement": "WT DMSO/WT HC101A Fold change", "setting": "DosRST regulon; gene MT2017", "value": 0.1715}, {"measurement": "WT DMSO/WT HC101A Fold change", "setting": "DosRST regulon; gene MT2018 (Rv1966 mce3)", "value": 0.1698}, {"measurement": "WT DMSO/WT HC101A Fold change", "setting": "DosRST regulon; gene MT2019 (Rv1967)", "value": 0.1773}, {"measurement": "WT DMSO/WT HC101A Fold change", "setting": "DosRST regulon; gene MT2020 (Rv1968)", "value": 0.1625}, {"measurement": "WT DMSO/WT HC101A Fold change", "setting": "DosRST regulon; gene MT2021 (Rv1969)", "value": 0.2873}, {"measurement": "WT DMSO/WT HC101A Fold change", "setting": "DosRST regulon; gene MT2022 (Rv1970 lprM)", "value": 0.1966}, {"measurement": "WT DMSO/WT HC101A Fold change", "setting": "DosRST regulon; gene MT2023 (Rv1971)", "value": 0.204}, {"measurement": "WT DMSO/WT HC101A Fold change", "setting": "DosRST regulon; gene MT2024 (Rv1972)", "value": 0.4588}, {"measurement": "WT DMSO/WT HC101A Fold change", "setting": "DosRST regulon; gene MT2042.1", "value": 0.3482}, {"measurement": "WT DMSO/WT HC101A Fold change", "setting": "DosRST regulon; gene MT2050 (Rv2004c)", "value": 0.08238}, {"measurement": "WT DMSO/WT HC101A Fold change", "setting": "DosRST regulon; gene MT2051 (Rv2005c)", "value": 0.06892}, {"measurement": "WT DMSO/WT HC101A Fold change", "setting": "DosRST regulon; gene MT2052 (Rv1996)", "value": 0.007357}, {"measurement": "WT DMSO/WT HC101A Fold change", "setting": "DosRST regulon; gene MT2052 (Rv2006 otsB)", "value": 0.1795}, {"measurement": "WT DMSO/WT HC101A Fold change", "setting": "DosRST regulon; gene MT2053 (Rv1997 ctpF)", "value": 0.03277}, {"measurement": "WT DMSO/WT HC101A Fold change", "setting": "DosRST regulon; gene MT2053 (Rv2007c fdxA)", "value": 0.1127}, {"measurement": "WT DMSO/WT HC101A Fold change", "setting": "DosRST regulon; gene MT2059 (Rv2003c)", "value": 0.1512}, {"measurement": "WT DMSO/WT HC101A Fold change", "setting": "DosRST regulon; gene MT2079 (Rv2023c)", "value": 0.3535}, {"measurement": "WT DMSO/WT HC101A Fold change", "setting": "DosRST regulon; gene MT2080", "value": 0.3483}, {"measurement": "WT DMSO/WT HC101A Fold change", "setting": "DosRST regulon; gene MT2086 (Rv2027c)", "value": 0.2146}, {"measurement": "WT DMSO/WT HC101A Fold change", "setting": "DosRST regulon; gene MT2087 (Rv2028c)", "value": 0.08521}, {"measurement": "WT DMSO/WT HC101A Fold change", "setting": "DosRST regulon; gene MT2088", "value": 0.03414}, {"measurement": "WT DMSO/WT HC101A Fold change", "setting": "DosRST regulon; gene MT2089 (Rv2030c)", "value": 0.05595}, {"measurement": "WT DMSO/WT HC101A Fold change", "setting": "DosRST regulon; gene MT2090", "value": 0.0263}, {"measurement": "WT DMSO/WT HC101A Fold change", "setting": "DosRST regulon; gene MT2091 (Rv2032)", "value": 0.03365}, {"measurement": "WT DMSO/WT HC101A Fold change", "setting": "DosRST regulon; gene MT2156 (Rv2107 PE)", "value": 0.3322}, {"measurement": "WT DMSO/WT HC101A Fold change", "setting": "DosRST regulon; gene MT2278 (Rv2220 glnAl)", "value": 0.3597}, {"measurement": "WT DMSO/WT HC101A Fold change", "setting": "DosRST regulon; gene MT2304 (Rv2244 acpM)", "value": 0.2232}, {"measurement": "WT DMSO/WT HC101A Fold change", "setting": "DosRST regulon; gene MT2305 (Rv2245 kasA)", "value": 0.8019}, {"measurement": "WT DMSO/WT HC101A Fold change", "setting": "DosRST regulon; gene MT2306", "value": 0.3393}, {"measurement": "WT DMSO/WT HC101A Fold change", "setting": "DosRST regulon; gene MT2307 (Rv2247 accD6)", "value": 0.4599}, {"measurement": "WT DMSO/WT HC101A Fold change", "setting": "DosRST regulon; gene MT2329 (Rv2267c)", "value": 0.4251}, {"measurement": "concentration at which artemisinin modulates DosS heme (shift of the reduced Soret peak)", "setting": "DosS", "value": 400, "unit": "µM"}]}]}
